Earlier results on one substance are cited in paper PMC6412969.

By IC50 is commonly meant the concentration needed to halve the response being measured.

The subject of this data set is μOR. The following applies: other results from our laboratory.

For the substance biphalin, the IC50 was 1.4 nM.
